Measured values as given in patent US7462695B2, “Insect chymotrypsin and inhibitors thereof” (Hexima Limited, priority 2003, dated 2008).

Target: bovine chymotrypsin (Bos taurus, UniProt P00766)
Assay: Inhibition of bovine chymotrypsin
Assay type: biochemical
Settings: at maximum concentration tested; 100 ng bovine chymotrypsin; pH 10
Protocol: Several proteinase inhibitors were tested for their ability to inhibit the activity of the insensitive chymotrypsins. The buffer used for all assays was 500 mM CAPS, 75 mM NaCl, 2.5 mM MgCl2 at pH 10.

With `O=S(=O)(F)Cc1ccccc1` [PMSF, phenylmethyl sulphonyl fluoride, reference compound] the “% Inhibition BC” value was 100%.
